Biological target: T1, NK1R (Mus musculus, UniProt P30548)
T1 construct: from tissue
Assay: Histology of skin and skin draining lymph nodes of B6-WT mice sensitized with DNCB with or without SarSP
Conditions: in vivo
Description: FIGS. 45A-45D illustrate inflammatory responses observed in cross sections of abdominal skin and skin draining lymph nodes of B6-WT mice sensitized or not (controls) with DNCB in the presence or not of the NK1R agonist SarSP. […] Mice treated with DNCB illustrate moderate skin inflammation composed of PMN cells (inset) distributed mainly in the papillary dermis (arrows).
FIG. 45B illustrates staining of skin sections with TB increased inflammatory infiltrate correlates with the degree of MC degranulation, insets.
(A & C: H and E, 200×; Insets, 1,000×; B & D: TB, 200×; Insets 1,000×; NT refers to non-treated mice.)
The effect of different treatments in B6-WT mice was compared with n=6/experimental group. […] The inflammatory infiltrate was composed of leukocytes including polimorphonuclear neutrophils (PMN) and eosinophils as shown in the inset of FIG. 45A.

Chains of the proteins cited; added tags and fusions are not shown.
UniProt P30548, whole entry: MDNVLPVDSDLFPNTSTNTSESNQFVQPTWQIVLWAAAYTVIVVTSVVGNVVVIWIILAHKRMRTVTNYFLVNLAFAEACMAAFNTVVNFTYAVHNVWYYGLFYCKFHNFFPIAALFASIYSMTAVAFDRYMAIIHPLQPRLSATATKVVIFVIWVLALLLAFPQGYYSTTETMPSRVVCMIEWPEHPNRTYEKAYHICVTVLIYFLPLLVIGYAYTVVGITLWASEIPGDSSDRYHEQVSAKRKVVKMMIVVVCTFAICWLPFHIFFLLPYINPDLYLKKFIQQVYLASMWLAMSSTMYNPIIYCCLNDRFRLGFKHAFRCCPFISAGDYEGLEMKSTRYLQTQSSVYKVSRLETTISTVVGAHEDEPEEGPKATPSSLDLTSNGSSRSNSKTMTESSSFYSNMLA

O=[N+]([O-])c1ccc(Cl)c([N+](=O)[O-])c1 [DNCB, 2,4-Dinitrochlorobenzene]
number of MC in draining lymph nodes: induced an increased number of MC

Source: patent US11744889B2, “Skin microenvironment targeted delivery for promoting immune and other responses” (University of Pittsburgh—Of the Commonwealth System of …, priority 2016, dated 2023)
